# scFv variants of Ab-14 (light chain) against a SARS-CoV-2 spike peptide

The target is the same throughout: PDVDLGDISGINAS, from the HR2 region of SARS-CoV-2 spike.

Each scFv is VH, the linker GGGGSGGGGSGGGGS, VL, as in the parent Ab-14, and differs from it in the CDRs of the light chain only.
VH: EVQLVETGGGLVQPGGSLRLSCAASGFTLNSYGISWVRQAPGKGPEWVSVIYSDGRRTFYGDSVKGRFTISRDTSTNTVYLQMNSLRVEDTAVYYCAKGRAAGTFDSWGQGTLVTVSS
VL: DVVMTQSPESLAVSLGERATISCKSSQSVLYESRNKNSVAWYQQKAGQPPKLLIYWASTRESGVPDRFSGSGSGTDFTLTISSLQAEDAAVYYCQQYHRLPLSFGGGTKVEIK

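Library AAYL50 holds single substitutions and randomly drawn double and triple substitutions in the CDRs. Affinity was read by AlphaSeq, a pooled yeast mating assay with surface-displayed partners. Mating (16 h, 30 °C) was followed by selection of diploids and sequencing of their barcodes. Read counts were normalised to the haploid input and turned into Kd by a linear fit to BCL2-family pairs of known affinity, for each replicate. Mating was done three times.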

Positions count from residue 1 of the parent VL; Y31N puts N in place of Y.
Numbers give log10(Kd / nM), so 0 is 1 nM and 3 is 1 µM. Smaller is tighter.
Averages over replicates are reported, and they cover detected replicates only.
Where no diploid with the target was found in that replicate, the entry reads "nd": below detection, most likely a poor binder, though not proof of it.
As a blank, each scFv also met three strains without target: over library AAYL50, 18% of these pairings were detected, typically at 4.19 and seldom below 2.99. For each scFv, signals with the empty controls are counted beside the result, with their mean in brackets.

changes | log10 Kd (nM) by replicate | mean log10 Kd (nM) | signal with controls
Y31N W56H A57G | 1.09 0.96 1.02 | 1.02 | 1 of 9 (2.66)
Y31N R34S W56G | 0.35 0.75 0.57 | 0.56 | 8 of 9 (5.09)
Q27D P101K L102A | nd nd nd | nd | 0 of 9
K24S V29L N35Q | 0.97 0.99 0.93 | 0.97 | 4 of 9 (3.62)
Q27E S58T S62P | 0.45 0.68 0.27 | 0.47 | 0 of 9
Q27P L30S T59A | 1.22 1.39 1.60 | 1.40 | 5 of 9 (4.53)
K36R S58Q Q95I | nd nd nd | nd | 0 of 9
S25T A40D S103G | nd nd nd | nd | 1 of 9 (3.68)
S38I S58H E61F | nd nd nd | nd | 4 of 9 (3.91)
R34W T59D R60S | 3.28 nd nd | 3.28 | 2 of 9 (3.72)
S38P E61M | 1.31 1.70 3.27 | 2.09 | 0 of 9
S33E N37R Q95G | nd nd nd | nd | 1 of 9 (3.71)
S26Q K36W Y97N | nd nd nd | nd | 0 of 9
S33G V39Q H98E | nd 3.24 nd | 3.24 | 1 of 9 (3.92)
R34W N35F W56A | 0.06 0.34 0.31 | 0.24 | 1 of 9 (3.17)
S28L N35C N37G | nd nd nd | nd | 0 of 9
A57P R60C L100C | nd nd nd | nd | 1 of 9 (3.63)
S33F S62Q | 1.85 1.84 2.08 | 1.92 | 7 of 9 (4.26)
S28M S38Q V39R | nd 3.79 nd | 3.79 | 0 of 9
S28R S33F K36Y | 3.40 2.99 nd | 3.20 | 2 of 9 (3.89)
S26I N35Q A57F | nd nd nd | nd | 0 of 9
W56T P101Q | nd nd nd | nd | 0 of 9
S28A E32F P101H | 2.09 2.06 2.53 | 2.23 | 3 of 9 (4.85)
Q27G Q96H L100G | nd nd nd | nd | 0 of 9
Q27K W56S S62G | 2.48 2.78 2.69 | 2.65 | 6 of 9 (3.90)
Y31P T59S Q96Y | 2.33 2.29 2.50 | 2.37 | 3 of 9 (4.51)
A57T R99M L100Q | 3.91 nd nd | 3.91 | 1 of 9 (3.70)
S33Y S38M A57W | nd nd nd | nd | 1 of 9 (4.43)
E32K S33K V39L | 3.46 nd nd | 3.46 | 2 of 9 (3.31)
S25Y E32P R60I | 2.60 2.70 4.32 | 3.21 | 2 of 9 (3.36)
Y31K Q96V L102A | nd nd nd | nd | 0 of 9
Q27H H98I L100Q | 1.54 1.70 1.86 | 1.70 | 5 of 9 (4.41)

Data: MIT Lincoln Laboratory AlphaSeq set, Engelhart et al. 2022, doi:10.1038/s41597-022-01779-4, as distributed in FLAb.